High-throughput results as filed in PubChem BioAssay.
The list is not random: actives were taken first. Their share in the collection is about 2.1%.
PGC1a acetyl inh = modulators of PGC1a acetylation; U2OS PGC1a acetylation, AlphaScreen anti-acetyl-lysine; with virally co-expressed GCN5 acetyltransferase; inhibition, % at 15.6 µM; 0.17% of 350,000 active; AID 651687;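 active = every replicate shows inhibition of at least 40%; inconclusive = mean inhibition at least 40% but some replicate below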;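 also: 0% = neutral control wells and 100% = positive control wells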
TRPM1 prom inh = inhibitors of MITF-driven TRPM1 promoter in melanoma cells | 0.83% of 330,000 active | AID 488899 | SK-MEL-5 TRPM1 promoter luciferase, 24 h | inhibition, % at 12.5 µM;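 active = mean inhibition across replicates of 60% or more, whatever share of single replicates reaches that level; inconclusive = some that reach 60%, reason not given; inactive = mean inhibition across replicates below 60%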
MITF TRPM1 HTS = activators of MITF-driven TRPM1 promoter activity in SK-MEL-5 cells; SK-MEL-5 TRPM1-promoter luciferase, 24 h; % of positive control, neutral wells = 0; activation, % at 12.5 µM; 0.75% of 300,000 active; AID 588334;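 active = mean activation of at least 80% with every replicate also reaching 80%; inconclusive = mean reaches 80% but some replicate falls short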;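 also: 0% = neutral control wells and 100% = parthenolide positive control wells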
Wnt bcat act = activators of Wnt/beta-catenin signaling. Wnt/beta-catenin reporter cell assay, activator, plate reader. activation, % at 9.35 µM. 1.2% of 300,000 active; in the data active = activation above about 30%, passing the limit was not always enough; inconclusive = no clear call, values can overlap the other calls;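 also: 0% = neutral control wells and 100% = positive control wells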
miR122 inh = miR-122 inhibition in Huh7 cells; Huh7 miR-122 Renilla luciferase sensor, 48 h; neutral wells = 0, positive control = 100; activation (reporter increase), % at 12.5 µM; 0.3% of 340,000 active;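 active = mean replicate activation score at least 90 and every replicate individually at or above 90; inconclusive = only one of the two criteria met; inactive = neither criterion met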;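 also: higher luciferase means less miR-122 activity so hits act as miR-122 inhibitors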
Yeast UUG start = modulators of start codon recognition fidelity in yeast; S. cerevisiae UUG-firefly luciferase reporter, luminescence/redox ratio; AID 602363; 350,000 tested, 0.13% active; activity score, % at 18.7 µM;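 active = replicate mean at a twofold rise or more, about +100% in these data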;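 also: firefly luciferase made from a UUG start codon reports start codon fidelity; reporter light over untreated wells divided by growth signal over untreated wells; some hits fall short of that in this replicate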
The depositor's hits bear a star; [ ] = dose if it differs, or a comment.

`O=[N+]([O-])c1ccc(-c2ccc(/C=N/Nc3nc(N4CCCCC4)nc(N4CCCCC4)n3)o2)cc1` gave PGC1a acetyl inh 4.6, TRPM1 prom inh -11.1, MITF TRPM1 HTS 11.8, Wnt bcat act -17.9 and miR122 inh -7.4.
For O=[N+]([O-])c1ccc(-c2ccc(/C=N/Nc3nc(N4CCCC4)nc(N4CCCC4)n3)o2)cc1 the results were PGC1a acetyl inh -0.5, TRPM1 prom inh 68.5*, MITF TRPM1 HTS -67.7 and Wnt bcat act -9.0.
For COc1ccc(S(=O)(=O)N(C)C[C@H]2OCCCC[C@H](C)Oc3ccc(NC(=O)c4ccncc4)cc3C(=O)N([C@H](C)CO)C[C@@H]2C)cc1 the results were PGC1a acetyl inh 4.6, miR122 inh -3.9[16.7 µM] and Yeast UUG start 7.7.
For CN(C)CC(=O)N[C@@H]1CC[C@H](CCn2cc(C3CCCCC3)nn2)O[C@@H]1CO the results were PGC1a acetyl inh -10.4, miR122 inh 13.8[16.7 µM] and Yeast UUG start -9.5.
COc1ccc(Nc2nc(N)nc(CSc3nnc(N)s3)n2)cc1 was read as PGC1a acetyl inh -5.0, TRPM1 prom inh -9.7, miR122 inh -8.8 and Yeast UUG start -26.3.
For Nc1nc(CSCCO)nc(Nc2ccccc2)n1 the results were PGC1a acetyl inh 2.6, TRPM1 prom inh 1.4, MITF TRPM1 HTS 1.9, miR122 inh -5.1 and Yeast UUG start -22.0.
Screening COc1ccc(Nc2nc(N)nc(CSc3nccn3C)n2)cc1 returned TRPM1 prom inh -9.7, MITF TRPM1 HTS 6.4 and Wnt bcat act 56.0*.
Screening Nc1nc(CSc2ccccn2)nc(Nc2ccccc2)n1 returned PGC1a acetyl inh 0.1, TRPM1 prom inh -145.3, MITF TRPM1 HTS 151.7*, Wnt bcat act 43.3*, miR122 inh -12.3 and Yeast UUG start -26.9.
Cc1ccccc1S(=O)(=O)NCC[C@H]1CC[C@@H](NC(=O)C2CCCCC2)[C@H](CO)O1 was read as PGC1a acetyl inh -3.3 and Yeast UUG start 2.1.
Screening COc1ccc(S(=O)(=O)Nc2ccc(C)c(S(=O)(=O)N3CCOCC3)c2)cc1[N+](=O)[O-] returned PGC1a acetyl inh 8.5, TRPM1 prom inh -4.3, MITF TRPM1 HTS 4.0, Wnt bcat act -2.0, miR122 inh 98.2* and Yeast UUG start -7.8.
Screening Cc1ccc(NC(=O)c2ccc([N+](=O)[O-])o2)cc1S(=O)(=O)N1CCOCC1 returned PGC1a acetyl inh -190.7, TRPM1 prom inh 83.8*, MITF TRPM1 HTS -83.1 and miR122 inh 8.6.
For O=C(COC(=O)c1ccc([N+](=O)[O-])o1)Nc1cccc(S(=O)(=O)N2CCCCC2)c1 the results were PGC1a acetyl inh -10.1, TRPM1 prom inh -0.5, MITF TRPM1 HTS 0.3, Wnt bcat act -0.9, miR122 inh -4.0 and Yeast UUG start 4.3.

Two successive entries from above:
Screening Cc1ccc(NC(=O)c2ccc([N+](=O)[O-])o2)cc1S(=O)(=O)N1CCOCC1 returned PGC1a acetyl inh -190.7, TRPM1 prom inh 83.8*, MITF TRPM1 HTS -83.1 and miR122 inh 8.6.
For O=C(COC(=O)c1ccc([N+](=O)[O-])o1)Nc1cccc(S(=O)(=O)N2CCCCC2)c1 the results were PGC1a acetyl inh -10.1, TRPM1 prom inh -0.5, MITF TRPM1 HTS 0.3, Wnt bcat act -0.9, miR122 inh -4.0 and Yeast UUG start 4.3.

Later entries
For O=C(Nc1cccc(S(=O)(=O)N2CCCCC2)c1)c1ccc([N+](=O)[O-])o1 the results were PGC1a acetyl inh -225.7, TRPM1 prom inh 80.1*, MITF TRPM1 HTS -79.4, Wnt bcat act -11.0, miR122 inh 2.8 and Yeast UUG start -23.9.
`C[C@H]1CN([C@@H](C)CO)S(=O)(=O)c2ccc(C3=CCCC3)cc2O[C@H]1CN(C)C(=O)c1ccncc1` gave PGC1a acetyl inh -11.8, miR122 inh 10.5[16.7 µM] and Yeast UUG start -17.1.
`Cc1ccc(S(=O)(=O)NCC[C@@H]2CC[C@H](NS(=O)(=O)c3ccccc3Cl)[C@H](CO)O2)cc1` gave PGC1a acetyl inh -4.2 and Yeast UUG start 17.3.
`CCOC(=O)C(=Cc1ccc(-n2ccnc2)cc1)C(=O)OCC` gave PGC1a acetyl inh 6.2, MITF TRPM1 HTS -74.3, Wnt bcat act 55.6*, miR122 inh 4.1 and Yeast UUG start -17.5.
For CCOC(=O)/C(=C/c1ccc(OC(=O)c2ccncc2)cc1)C(C)=O the results were PGC1a acetyl inh 0.9, TRPM1 prom inh 8.0, MITF TRPM1 HTS -8.8 and Wnt bcat act 45.7*.
For CCOC(=O)C(=Cc1ccc(Br)cc1)C(=O)OCC the results were PGC1a acetyl inh 12.5, TRPM1 prom inh 3.7, MITF TRPM1 HTS 3.8, Wnt bcat act 5.2, miR122 inh 0.4 and Yeast UUG start -1.5.
Screening Cc1cc(/C=N/NC(=O)c2ccccc2F)c(C)n1-c1ccccc1 returned TRPM1 prom inh -93.9, MITF TRPM1 HTS 97.4* and Wnt bcat act 51.9*.
For Cc1cc(/C=N/NC(=O)c2cccc(F)c2)c(C)n1-c1ccccc1 the results were TRPM1 prom inh -44.3, MITF TRPM1 HTS 53.5 and Wnt bcat act inconclusive.
